This note sets out measurements from patent US8946203B2, “Benzodioxane inhibitors of leukotriene production” (Boehringer Ingelheim International GmbH, priority 2012, dated 2015).

In the assay the target is T1, human LTA4 hydrolase (Homo sapiens, UniProt P09960).
T1 sequence (P09960 1-611): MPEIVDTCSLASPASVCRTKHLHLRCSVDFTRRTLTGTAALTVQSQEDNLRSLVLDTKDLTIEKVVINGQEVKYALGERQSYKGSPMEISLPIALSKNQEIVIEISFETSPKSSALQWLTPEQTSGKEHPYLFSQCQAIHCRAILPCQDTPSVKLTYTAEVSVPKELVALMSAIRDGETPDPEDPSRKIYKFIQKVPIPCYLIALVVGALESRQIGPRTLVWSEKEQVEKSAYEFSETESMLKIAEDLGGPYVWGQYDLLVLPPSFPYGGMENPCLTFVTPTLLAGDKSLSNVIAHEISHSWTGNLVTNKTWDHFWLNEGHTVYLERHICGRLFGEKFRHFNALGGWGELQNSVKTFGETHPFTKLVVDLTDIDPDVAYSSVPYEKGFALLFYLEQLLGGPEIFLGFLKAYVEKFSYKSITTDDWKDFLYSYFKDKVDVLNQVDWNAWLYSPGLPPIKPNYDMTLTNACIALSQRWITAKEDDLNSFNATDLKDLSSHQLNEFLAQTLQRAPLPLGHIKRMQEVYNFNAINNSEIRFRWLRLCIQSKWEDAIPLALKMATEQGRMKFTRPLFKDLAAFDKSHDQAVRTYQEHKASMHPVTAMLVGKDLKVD
Put plainly: LTA4H Enzyme assay (cleavage of Arg-AMC, fluorescence). In kind it is biochemical. The note with it: LTA4H Enzyme 1 nM, Arg-AMC substrate 50 μM, room temperature 1 h. How it is done:
The compounds of the invention are assessed for the ability to interact with human LTA4 hydrolase in an enzymatic assay that measures the ability of the enzyme to cleave the peptide bond of arginyl-aminomethylcoumarin (Arg-AMC). LTA4H Enzyme (1 nM final), Arg-AMC substrate (50 μM final), and compound are combined in a reaction buffer (50 mM Tris-HCl (pH 7.5), 100 mM KCl, 0.5% bovine serum albumin) at room temperature for 1 h. The formation of product is assessed by measuring the fluorescence of aminomethylcoumarin product (excitation wavelength 380 nm/emission wavelength 460 nm).

Each structure is given as a SMILES string.

With `CN(Cc1ccc([C@H]2COc3ccccc3O2)cc1)[C@H]1CCCC[C@@H]1O` [Example 105, (1S,2S)-2-[{4-[(2S)-2,3-dihydro-1,4-benzodioxin-2-yl]benzyl}(methyl)amino]cyclo-hexanol], the half-inhibitory concentration (IC50) – broadly, the concentration that inhibits the measured activity by half – was 0.51 nM.

Take `CN(Cc1ccc([C@H]2COc3ccccc3O2)cc1)[C@H]1CCCC[C@H]1O` [Example 106, (1R,2S)-2-[{4-[(2S)-2,3-dihydro-1,4-benzodioxin-2-yl]benzyl}(methyl)amino]cyclo-hexanol]: half-maximal inhibition (IC50) was put at 0.46 nM.
